Chains of the proteins cited; added tags and fusions are not shown.
UniProt P31645, whole entry: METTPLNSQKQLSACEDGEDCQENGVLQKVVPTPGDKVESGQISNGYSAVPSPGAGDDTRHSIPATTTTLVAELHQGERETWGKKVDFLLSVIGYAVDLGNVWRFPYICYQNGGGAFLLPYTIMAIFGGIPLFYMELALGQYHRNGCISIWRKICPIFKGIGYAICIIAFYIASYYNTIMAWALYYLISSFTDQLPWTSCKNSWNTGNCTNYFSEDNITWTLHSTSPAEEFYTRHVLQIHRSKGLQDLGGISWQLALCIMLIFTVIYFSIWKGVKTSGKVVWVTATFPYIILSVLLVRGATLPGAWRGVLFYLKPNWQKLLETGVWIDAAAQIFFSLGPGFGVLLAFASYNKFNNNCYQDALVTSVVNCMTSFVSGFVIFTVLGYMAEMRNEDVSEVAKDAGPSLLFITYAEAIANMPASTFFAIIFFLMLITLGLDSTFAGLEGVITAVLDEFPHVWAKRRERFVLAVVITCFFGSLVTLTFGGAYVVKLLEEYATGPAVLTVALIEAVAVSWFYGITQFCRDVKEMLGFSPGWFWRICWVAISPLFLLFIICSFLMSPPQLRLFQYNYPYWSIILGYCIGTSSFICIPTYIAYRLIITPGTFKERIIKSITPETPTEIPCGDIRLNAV

In ChEMBL document CHEMBL1139648, “Designing rapid onset selective serotonin re-uptake inhibitors. Part 1: Structure-activity relationships of substituted (1S,4S)-4-(3,4-dichlorophenyl)-N-methyl-1,2,3,4-tetrahydro-1-naphthaleneamine” (Bioorg Med Chem Lett, 2006):

Molecular target: Sodium-dependent serotonin transporter (Homo sapiens, UniProt P31645)
Format: cell-based, HEK293

Row | SMILES | IC50 [nM]
1 | CN[C@H]1CC[C@@H](c2ccc(Cl)c(Cl)c2)c2cc(C(=O)O)c(NS(C)(=O)=O)cc21 | 65
2 | CN[C@H]1CC[C@@H](c2ccc(Cl)c(Cl)c2)c2ccc(C(=O)O)cc21 | 90
3 | CN[C@H]1CC[C@@H](c2ccc(Cl)c(Cl)c2)c2cc(S(C)(=O)=O)ccc21 | 54
4 | CN[C@H]1CC[C@@H](c2ccc(Cl)c(Cl)c2)c2ccc(C[S+](C)[O-])cc21 (some centres undefined) | 340

Molecules with a lower IC50, results first:

Row | IC50 [nM] | SMILES
5 | 24 | CN[C@H]1CC[C@@H](c2ccc(Cl)c(Cl)c2)c2cc(C(N)=O)c(NS(C)(=O)=O)cc21
6 | 8 | CN[C@H]1CC[C@@H](c2ccc(Cl)c(Cl)c2)c2cccc(C(N)=O)c21
7 | 7 | CN[C@H]1CC[C@@H](c2ccc(Cl)c(Cl)c2)c2cc(C(=O)N(C)C)ccc21
8 | 5 | CN[C@H]1CC[C@@H](c2ccc(Cl)c(Cl)c2)c2ccc(C(=O)OC)cc21
9 | 5 | CN[C@H]1CC[C@@H](c2ccc(Cl)c(Cl)c2)c2ccc(S(=O)(=O)NC)cc21
